{"source": "patent US11219664B2", "about": "“Composition for diagnosing, preventing, or treating vascular smooth muscle cell proliferative diseases using FGF12” (CHUNG-ANG UNIVERSITY INDUSTRY ACADEMIC COOPERATION …, priority 2015, dated 2022)", "molecules": {"B1": {"name": "BMP-2: bone morphogenetic protein, promotes differentiation and inhibits proliferation of vascular smooth muscle cells (protein, UniProt P12643 283-396, looked up)", "Bone morphogenetic protein 2": "QAKHKQRKRLKSSCKRHPLYVDFSDVGWNDWIVAPPGYHAFYCHGECPFPLADHLNSTNHAIVQTLVNSVNSKIPKACCVPTELSAISMLYLDENEKVVLKNYQDMVVEGCGCR"}}, "tested_on": "HPASMC", "assay": "FGF12 expression regulation by BMP in HPASMC (RT-PCR, Western blotting)", "type": "cell-based, human", "method": "Total RNA of cells or tissues for reverse transcription-polymerase chain reaction (RT-PCR) was isolated with TRIzol reagent (Invitrogen). Next, cDNA was synthesized from total RNA using primers specific to corresponding genes and a Superscript first-strand synthesis kit (Invitrogen), and was amplified by PCR (30-35 cycles). Glyceraldehyde-3-phosphate dehydrogenase (GAPDH) was used as a loading control. Real-time PCR was performed using a SYBR-Green PCR master mix (Applied biosystems) and the StepOnePlus™ Real Time PCR System (Applied Biosystems). Data were analyzed according to ΔΔCt method, and gene expression values were normalized to GAPDH expression.\nFor transfection for FGF12 overexpression, an expression vector (pCMV6-Entry having the c-terminal labeled Myc-DDK) encoding a rat homologous gene (Origene) having 100% amino acid homology with human FGF12 cDNA was used. HASMCs and HPASMCs were transfected with pCMV6-FGF12(pFGF12) or pCMV6-Entry (pEntry) control vector using Lipofectamien™ 2000 according to the protocol of the manufacturer, and selected using G418 (Sigma) for 2 weeks. For the inhibition of FGF12, p53 or BMPR2 expression, subconfluent HASMCs were transfected with specific or non-specific small interfering RNA (siRNA; GE Healthcare) using Lipofectamien™ 2000.\nCell and tissue lysates were separated by SDS-PAGE, and protein bands were transferred on blots. Blots were reacted with appropriate primary antibodies such as FGF12 (Abcam), p-p53 (Cell Signaling Technology), p53 (BD Biosciences), α-SMA (Sigma), SM22α (Abcam), SM-MHC, or β-actin (Santa Cruz biotechnology), followed by treatment with horseradish peroxidase-conjugated secondary antibodies. The protein bands reacted with antibodies were confirmed by a chemiluminescent reagent (Amersham Biosciences).", "key": {"[1]": {"conditions": "30 ng/ml, 48 hours, western blotting"}}, "data": [{"molecule": "B1", "values": [{"measurement": "FGF12 protein expression", "setting": "[1]", "result": "increased"}, {"measurement": "protein expression of vascular smooth muscle cell differentiation markers (α-SMA, SM22α)", "setting": "[1]", "result": "increased"}, {"measurement": "level of FGF12 mRNA", "setting": "48 hours after addition to basal medium (10 and 30 ng/ml), RT-PCR", "result": "significantly increased"}]}]}
